According to ChEMBL document CHEMBL1155879, “Identification and validation of human DNA ligase inhibitors using computer-aided drug design” (J Med Chem, 2008):
The source made the active and inactive calls. No cut-off for these calls is given here.

Tested on: DNA
Test: Inhibition of ethidium bromide binding to DNA at 100 uM

Activity: inactive
SMILES: O=C1Nc2c(C(=O)O)cccc2C1=O
